Test results published in patent publication US9504729B2, “Antiangiogenic small molecules and methods of use” (The United States of America, as represented by the …, priority 2009, dated 2016).

Legend:
PAE cells [1] = test: Growth dose response (IC50) in PAE; type: cell-based, porcine; conditions: read-out: Growth IC50 (M) in PAE
PAE = test: Apoptosis in PAE; type: cell-based, porcine; conditions: PAE cells
PAE cells [2] = test: Fluorescence-release cytotoxicity assay; conditions: endothelial cells; less than 10% is considered basal level
endothelial cells = test: Primary screening: cell-based growth HTS and tube formation HTS (bioactivity class); conditions: HTS at 1 μM final concentration

In the case of “gold(1+); 1-(2,3,4-triaza-5- azanidacyclopenta-1,3-dien-1-yl)-2,3,4- triaza-5-azanidacyclopenta-1,3-diene; triphenylphosphane”, the IC50 (PAE cells [1]) is reported as 3.58e-10 M, the “Apoptosis PAE (RFU)” value (PAE) is reported as 0.9062 RFU and the “Cytotoxicity (%)” value (PAE cells [2]) is reported as 15.66%. It also gave a Bioactivity (endothelial cells) of 3.
